Literature values, collected in paper PMC9548544, “Population pharmacokinetic model of vancomycin in postoperative neurosurgical patients” (Frontiers in Pharmacology, 2022).

Details: cited from earlier work

In the case of CN[C@H](CC(C)C)C(=O)N[C@H]1C(=O)N[C@@H](CC(N)=O)C(=O)N[C@H]2C(=O)N[C@H]3C(=O)N[C@H](C(=O)N[C@H](C(=O)O)c4cc(O)cc(O)c4-c4cc3ccc4O)[C@H](O)c3ccc(c(Cl)c3)Oc3cc2cc(c3O[C@@H]2O[C@H](CO)[C@@H](O)[C@H](O)[C@H]2O[C@H]2C[C@](C)(N)[C@H](O)[C@H](C)O2)Oc2ccc(cc2Cl)[C@H]1O [vancomycin, Vancomycin], the “interindividual variability of CL in other vancomycin models” value (neurosurgical patients, ref Li et al., 2015, Kim et al., 2016, Lin et al., 2017, Ding et al., 2018, Jing et al., 2020, Jalusic et al., 2021) is listed as 21%–61.92%, the “vancomycin clearance in neurosurgical patients, published studies” value (neurosurgical patients, ref Marsot et al., 2012, Kim et al., 2016, Lin et al., Li et al., 2017, Jing et al., 2020, Jalusic et al., 2021, 2015, Lin Wu et al., Ding et al., 2018, Chen et al., 2022) is listed as 1.67 to 2.17 mL/min/kg and the “vancomycin clearance in other patient groups, published studies” value (other patient groups, ref Marsot et al., 2012, Kim et al., 2016, Lin et al., Li et al., 2017, Jing et al., 2020, Jalusic et al., 2021, 2015, Lin Wu et al., Ding et al., 2018, Chen et al., 2022) is listed as 0.517 to 1.43 mL/min/kg.
